{
  "source": "PubChem BioAssay AID624352",
  "about": "(Sanford-Burnham Center for Chemical Genomics, 2012)",
  "note": "The entries are a selection whose mix differs from that of the whole data set. Active and inactive are the calls of the source.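 The calls were made as follows: active = inhibition of the luminescence signal of 40% or more relative to plate controls, in a single-dose primary screen at 18.75 µM; inactive = the rest.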",
  "data": [
    {"assay": "HIF-2a reporter inhibitors, primary screen, luminescence, 786-0 RCC cells (AID 624352)", "details": "786-0 RCC cells HIF-2a reporter, luciferase luminescence, overnight; at 18.8 µM; stronger effect = higher value", "values": [
      {"smiles": "CN(C)C1(CNC(=O)c2ccc(Cl)c(S(N)(=O)=O)c2)CCCCC1", "inhibition": "inactive: 16.4%"},
      {"smiles": "O=P(Nc1ccccn1)(c1ccc(Br)cc1)c1ccc(Br)cc1", "inhibition": "inactive: 12.8%"},
      {"smiles": "Nc1ccc(CCCCOc2ccccc2)cc1", "inhibition": "inactive: -368%"},
      {"smiles": "COc1ccc(N)c([N+](=O)[O-])c1[N+](=O)[O-]", "inhibition": "inactive: 1.68%"},
      {"smiles": "C[C@H]1OP(=O)(Oc2ccccc2)[C@H](O)[C@H](O)[C@H]1N=[N+]=[N-]", "note": "(stereo partly specified)", "inhibition": "inactive: 9.6%"},
      {"smiles": "O=P(Nc1nc2ccccc2s1)(c1ccccc1)c1ccccc1", "inhibition": "inactive: -15.8%"},
      {"smiles": "CCC(=O)N1C2C3N(C(=O)CC)C1C1N(C(=O)CC)C(C(N1C(=O)CC)N3C(=O)CC)N2C(=O)CC", "inhibition": "inactive: 23.5%"},
      {"smiles": "O=C(OC1CN2CCC1CC2)c1ccccc1", "note": "(stereo unspecified)", "inhibition": "inactive: 4.91%"},
      {"smiles": "CC(=O)NC(SC(=S)N(CC(C)C)CC(C)C)C(Cl)(Cl)Cl", "note": "(stereo unspecified)", "inhibition": "inactive: -0.399%"},
      {"smiles": "Cc1ccc(OP(=O)(Nc2ccccn2)Oc2ccc(C)cc2)cc1", "inhibition": "inactive: 23.8%"},
      {"smiles": "COC(=O)c1cc2c(s1)N=C(c1ccccc1)N(C)P2(=O)N1CCOCC1", "note": "(stereo unspecified)", "inhibition": "inactive: 16.8%"},
      {"smiles": "CN(C)C(=O)Oc1noc2ccccc12", "inhibition": "inactive: -1.67%"},
      {"smiles": "O=c1c2cc([N+](=O)[O-])ccc2[nH]c2c([N+](=O)[O-])cc([N+](=O)[O-])cc12", "inhibition": "inactive: 20.7%"},
      {"smiles": "Cc1ccccc1OP(=O)(Nc1ccccn1)Oc1ccccc1C", "inhibition": "inactive: 13%"},
      {"smiles": "CC(NC(=O)COC(=O)C(O)(c1ccccc1)c1ccccc1)c1ccccc1", "note": "(stereo unspecified)", "inhibition": "inactive: 7.15%"},
      {"smiles": "Cc1ccc(NP(=O)(Oc2cccc(C)c2)Oc2cccc(C)c2)nc1", "inhibition": "inactive: 20.3%"},
      {"smiles": "c1ccc(-c2nn[nH]n2)c(-c2nn[nH]n2)c1", "inhibition": "inactive: 21.8%"},
      {"smiles": "O=C(NC1CCS(=O)(=O)C1)NP(=S)(Oc1ccccc1)Oc1ccccc1", "note": "(stereo unspecified)", "inhibition": "inactive: -14.5%"},
      {"smiles": "CCNC(=S)/N=C(\\N)N[N+](=O)[O-]", "inhibition": "inactive: 11.3%"},
      {"smiles": "O=P1(N(CCCl)CCCl)OCCC2CCCCN21", "note": "(stereo unspecified)", "inhibition": "inactive: 12.1%"},
      {"smiles": "C[C@@H]1C=CCP(=O)(Oc2ccccc2)O1", "note": "(stereo partly specified)", "inhibition": "inactive: 11.5%"},
      {"smiles": "C[C@H]1OP(=O)(Oc2ccccc2)C[C@@H]2O[C@@H]21", "note": "(stereo partly specified)", "inhibition": "inactive: 12.4%"},
      {"smiles": "Cc1ccccc1CN(C)C(=O)COC(=O)C(O)(c1ccccc1)c1ccccc1", "inhibition": "inactive: 9.04%"},
      {"smiles": "COC(=O)C1(C)COP(=O)(NCc2ccccc2)OC1", "note": "(stereo unspecified)", "inhibition": "inactive: 12.1%"},
      {"smiles": "N#C/C(=C\\c1ccc(N(CCBr)CCBr)cc1)C(N)=O", "inhibition": "inactive: -20.4%"},
      {"smiles": "CC(=O)c1ccc(N2CC2c2ccncc2)cc1", "note": "(stereo unspecified)", "inhibition": "inactive: 16.3%"},
      {"smiles": "CC(=O)Nc1ccc(Oc2c([N+](=O)[O-])cc([N+](=O)[O-])cc2[N+](=O)[O-])cc1", "inhibition": "inactive: 16.1%"},
      {"smiles": "CC(=O)Nc1ccc([As](=O)(O)O)c(O)c1", "inhibition": "inactive: 22%"},
      {"smiles": "CCOc1ccc(C2=NCC(CBr)S2)cc1", "note": "(stereo unspecified)", "inhibition": "inactive: 4.23%"},
      {"smiles": "O=P1(Nc2nc3ccc(Cl)cc3s2)COc2ccccc2O1", "note": "(stereo unspecified)", "inhibition": "inactive: -56.6%"},
      {"smiles": "CC(C)(C)C(=O)NC(Sc1ccccc1)C(Cl)(Cl)Cl", "note": "(stereo unspecified)", "inhibition": "inactive: 22.8%"},
      {"smiles": "CCc1cc(O)c([N+](=O)[O-])c(C)c1[N+](=O)[O-]", "inhibition": "inactive: 4.26%"},
      {"smiles": "O=C(NC(Sc1ccncn1)C(Cl)(Cl)Cl)c1ccccc1", "note": "(stereo unspecified)", "inhibition": "inactive: 17.5%"},
      {"smiles": "Oc1ccccc1CNc1ccccn1", "inhibition": "inactive: -19.9%"},
      {"smiles": "CC(C)CC(=O)NC(Sc1ccc(Cl)cc1)C(Cl)(Cl)Cl", "note": "(stereo unspecified)", "inhibition": "inactive: 9.99%"},
      {"smiles": "Nc1cc(N)c2nonc2c1[N+](=O)[O-]", "inhibition": "inactive: 5.86%"},
      {"smiles": "O=[N+]([O-])C1C(O)C(O)C([N+](=O)[O-])C(O)C1O", "note": "(stereo unspecified)", "inhibition": "inactive: 12.2%"},
      {"smiles": "Cc1ccc(N/C(=N/P(=O)(N2CCOCC2)N2CCOCC2)N2CCOCC2)cc1", "inhibition": "inactive: 2.93%"},
      {"smiles": "CN(C(=O)Cc1ccc(Cl)c(Cl)c1)[C@H]1CCCC[C@H]1N1CCCC1", "inhibition": "inactive: 4.18%"},
      {"smiles": "NC(=O)c1cc([N+](=O)[O-])cc([N+](=O)[O-])c1N", "inhibition": "inactive: 14.6%"},
      {"smiles": "Clc1ccc(Cl)c(NC2=NCC(CBr)S2)c1", "note": "(stereo unspecified)", "inhibition": "inactive: -0.843%"},
      {"smiles": "CN1CCCC(OC(=O)C(c2ccccc2)c2ccccc2)C1", "note": "(stereo unspecified)", "inhibition": "inactive: 8.05%"},
      {"smiles": "Cc1ccc(OP(=O)(Nc2nccs2)Oc2ccc(C)cc2)cc1", "inhibition": "inactive: 5.08%"},
      {"smiles": "COc1ccccc1OP(=O)(Nc1ccc(C)cn1)Oc1ccccc1OC", "inhibition": "inactive: 5.45%"},
      {"smiles": "Nc1cccc2ccc([As](=O)(O)O)cc12", "inhibition": "inactive: 5.17%"},
      {"smiles": "CCN(N=Nc1nonc1N)c1nonc1N", "inhibition": "inactive: 31.3%"},
      {"smiles": "CN(C)P(=O)(N(C)C)n1c(Nc2ccccc2)nnc1-c1ccccc1", "inhibition": "inactive: -58.4%"},
      {"smiles": "O=P(Nc1nc2ccc(Cl)cc2s1)(c1ccccc1)c1ccccc1", "inhibition": "inactive: 7.96%"},
      {"smiles": "CCCC1OP(N)(=O)OCC1CC", "note": "(stereo unspecified)", "inhibition": "inactive: 8.97%"},
      {"smiles": "O=C(O)c1ccccc1[As](=O)(O)O", "inhibition": "inactive: 13.3%"},
      {"smiles": "CC(=O)Nc1ccc([As](=O)(O)O)cc1", "inhibition": "inactive: 9.38%"},
      {"smiles": "CN(C(=O)Cc1ccc(Cl)c(Cl)c1)[C@H]1CCCC[C@@H]1N1CCCC1", "inhibition": "inactive: 1.49%"},
      {"smiles": "Cc1ccc(NP(=O)(Oc2ccccc2F)Oc2ccccc2F)nc1", "inhibition": "inactive: 5.72%"},
      {"smiles": "CCOP(=O)(Nc1ccccc1)OCC", "inhibition": "inactive: 9.15%"},
      {"smiles": "Cc1cc(SC(NC(=O)c2ccc(F)cc2)C(Cl)(Cl)Cl)ncn1", "note": "(stereo unspecified)", "inhibition": "inactive: 9.84%"},
      {"smiles": "O=[N+]([O-])c1ncn(CCn2ncnc2[N+](=O)[O-])n1", "inhibition": "inactive: -1.67%"},
      {"smiles": "CC(C)(C)C(=O)NC(Sc1ccncn1)C(Cl)(Cl)Cl", "note": "(stereo unspecified)", "inhibition": "inactive: 3.15%"},
      {"smiles": "O=C(O)CNc1ccc([As](=O)(O)O)cc1", "inhibition": "inactive: 19%"},
      {"smiles": "O=[N+]([O-])c1cccc(NC2=NCC(CBr)S2)c1", "note": "(stereo unspecified)", "inhibition": "inactive: 5.2%"},
      {"smiles": "COC(=O)C1(C)COP(=O)(Nc2ccccc2)OC1", "note": "(stereo unspecified)", "inhibition": "inactive: 6.08%"},
      {"smiles": "O=P1(N(CCCl)CCCl)OCCCS1", "note": "(stereo unspecified)", "inhibition": "inactive: 8.32%"},
      {"smiles": "O=C(Nc1cc([As](=O)(O)O)ccc1O)c1ccccc1", "inhibition": "inactive: 4.88%"},
      {"smiles": "CCN(/C(=N/P(=O)(N1CCOCC1)N1CCOCC1)N1CCOCC1)c1ccc(OC)cc1", "inhibition": "inactive: 12.7%"},
      {"smiles": "C[N+]1=C2C=CC=CC=C2SC12C([N+](=O)[O-])=CC([N+](=O)[O-])=C[C-]2[N+](=O)[O-]", "note": "(stereo unspecified)", "inhibition": "inactive: -13.5%"},
      {"smiles": "Nc1ccc([As](=O)(O)c2ccc(N)cc2)cc1", "inhibition": "inactive: 7.99%"},
      {"smiles": "c1cc(-c2nn[nH]n2)ccc1-c1nn[nH]n1", "inhibition": "inactive: 16.7%"},
      {"smiles": "CC1CCN(C(=O)Oc2c(Cl)cc(Cl)c3cccnc23)CC1", "inhibition": "inactive: -44.5%"},
      {"smiles": "CN(C)C(=O)OCCc1n(C)cc[n+]1C", "inhibition": "inactive: 6.9%"},
      {"smiles": "CC(C)=N/N=C(\\N)N[N+](=O)[O-]", "inhibition": "inactive: 13.1%"},
      {"smiles": "CC(C)c1nc(Nc2ccccc2)n(P(=O)(N(C)C)N(C)C)n1", "inhibition": "inactive: 4.47%"},
      {"smiles": "COc1ccc(C2=NCC(CBr)S2)cc1", "note": "(stereo unspecified)", "inhibition": "inactive: 14.5%"},
      {"smiles": "O=[N+]([O-])c1cc([N+](=O)[O-])c(CCNc2ccccc2)c([N+](=O)[O-])c1", "inhibition": "inactive: -12.6%"},
      {"smiles": "CCc1nc2c(n1)c1c(non1O)c1c2no[n+]1[O-]", "inhibition": "inactive: 36.6%"},
      {"smiles": "Cc1ccc(NP(=O)(Oc2ccccc2)Oc2ccccc2)nc1", "inhibition": "inactive: 10.5%"},
      {"smiles": "CC(=O)N1C2C3N(C(C)=O)C1C1N(C(C)=O)C(C(N1C(C)=O)N3C(C)=O)N2C(C)=O", "inhibition": "inactive: 7.15%"},
      {"smiles": "O=[N+]([O-])c1cccc2n[nH]nc12", "inhibition": "inactive: 12.8%"}
    ]}
  ]
}
